Results on one compound are retold here after paper PMC4861662 (ChemMedChem, 2016).

A short description of this data set: Phase solubility diagram. The settings on record: container M2C4; 20 mM sodium phosphate buffered D2O, pD 7.4, rt; Gel = gel formed.

Take `CCCCc1oc2ccccc2c1C(=O)c1cc(I)c(OCCN(CC)CC)c(I)c1` [Amiodarone]: the “Initial slope of the PSD” value is recorded as “Gel”.
